From ChEMBL document CHEMBL1135302, “Optimization of the 4-aryl group of 4-aryl-pyridine glucagon antagonists: development of an efficient, alternative synthesis” (Bioorg Med Chem Lett, 2002)

Chains of the proteins cited; added tags and fusions are not shown.
UniProt P47871, whole entry: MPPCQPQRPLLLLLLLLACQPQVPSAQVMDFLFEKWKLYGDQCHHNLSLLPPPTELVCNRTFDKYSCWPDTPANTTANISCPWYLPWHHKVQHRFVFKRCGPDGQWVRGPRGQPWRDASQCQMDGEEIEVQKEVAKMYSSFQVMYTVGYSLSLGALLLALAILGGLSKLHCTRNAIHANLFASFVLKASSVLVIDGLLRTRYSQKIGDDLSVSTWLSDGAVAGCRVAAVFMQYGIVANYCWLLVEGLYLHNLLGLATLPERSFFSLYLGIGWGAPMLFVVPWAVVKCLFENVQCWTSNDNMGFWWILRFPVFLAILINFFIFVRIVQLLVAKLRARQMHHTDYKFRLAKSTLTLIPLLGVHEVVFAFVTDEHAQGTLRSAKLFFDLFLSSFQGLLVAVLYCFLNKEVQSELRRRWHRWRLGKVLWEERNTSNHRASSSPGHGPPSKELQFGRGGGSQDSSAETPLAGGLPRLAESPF

Target: Glucagon receptor (Homo sapiens, UniProt P47871)
Assay: Tested for its ability to inhibit cAMP production in human glucagon receptor expressed CHO cells
Assay type: functional, cell-based

CCCc1c(C(C)C)nc(C(C)C)c([C@@H](C)O)c1-c1ccc(F)cc1
IC50: 0.065 µM
